From publication PMC2765782 (Journal of medicinal chemistry, 2009)

Legend:
[1] = test system: Human T-cell lymphoma (CTCL) cells (Hut78)
RXR = biological target: T1, RXR (Homo sapiens, UniProt P19793); settings: 10^−7 M, 24 h, Caco-2 cells, compound 1 set to 1.0 (Figure 3)
T1 sequence (P19793 227-462 limits assumed): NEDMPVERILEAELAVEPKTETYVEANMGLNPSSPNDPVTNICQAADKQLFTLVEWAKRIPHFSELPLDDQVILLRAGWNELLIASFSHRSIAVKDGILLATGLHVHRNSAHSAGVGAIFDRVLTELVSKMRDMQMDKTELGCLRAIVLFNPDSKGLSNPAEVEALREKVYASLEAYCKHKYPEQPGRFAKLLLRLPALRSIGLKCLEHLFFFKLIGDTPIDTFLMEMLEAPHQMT

Row | Compound | apoptotic activity (caspases 3 and 7) [1] | RXR binding and homodimerization relative to 1 (luciferase output) (RXR)
1 | C=C(c1ccc(C(=O)O)c([N+](=O)[O-])c1)c1cc2c(cc1C)C(C)(C)CCC2(C)C [Compound 16, 4-(1-(1,2,3,4-Tetrahydro-1,1,4,4,6-pentamethylnaphthalen-7-yl)vinyl)-2-nitrobenzoic Acid] | statistically significantly greater than the ethanol vehicle control | about half as well as 1
2 | C=C(c1ccc(C(=O)O)c(F)c1)c1cc2c(cc1C)C(C)(C)CCC2(C)C [Compound 20, 2-fluoro-4-(1-(1,2,3,4-tetrahydro-1,1,4,4,6-pentamethylnaphthalen-7-yl)vinyl)benzoic acid] | statistically significantly greater than the ethanol vehicle control | better than 1
